Source: patent publication EP0127426A1, “Percutaneous pharmaceutical compositions for external use” (Takeda Chemical Industries, Ltd., priority 1983, dated 1984)

Test: Percutaneous absorption test in rats, blood concentration of clonidine by liquid chromatography
Details: promoting agent in propylene glycol preparation of clonidine (Comparative Example 3)
Protocol: 3 mg of clonidine, an antihypertensive drug, was dissolved in a mixture of 20 mg of lauric acid, one of the percutaneous absorption promoting agents according to this invention, and 177 mg of propylene glycol to prepare a coating sample.
A percutaneous absorption test was carried out in male SD-JCL rats with an average body weight of 250 g. Under pentobarbital anesthesia, the abdomen of each rat was clipped of hairs with an electric clipper and the sample was coated on the denuded abdominal area (5 x 4 cm).
The collected venous blood was centrifuged and 0.2 ml of the plasma was extracted with 1 ml of 0.01 N-NaOH and 5 ml of chloroform. From a 4 ml portion of the chloroform layer, the chloroform was distilled off and the residue was dissolved by addition of 0.2ml of 0.05 M sodium acetate-acetonitrile-tetrahydrofuran (70:30:0.2, v/v). A 50 µl portion of the solution was applied to a liquid chromatograph to determine the concentration of clonidine. The µ-Bondapak Cl8 column was used for this liquid chromatography. The percutaneous absorption of clonidine was evaluated in terms of AUC6 (area under the blood concentration-time curve of clonidine during 0 to 6 hours) and its multiple over the [formula] of the preparation of Comparative Example 1 was calculated.

SMILES: CCCCCCCCCCCCO [lauryl alcohol]
- effectiveness of the percutaneous absorption promoting agent for clonidine: ineffective
